Source: patent US20220362278A1, “RENAL TARGETING-TYPE DRUG DELIVERY CARRIER HAVING EXCELLENT BIODEGRABILITY” (priority 2019, published 2022)

Tests used:
[1] = 60 min after intravenous administration
[2] = Releasability of serine and biodegradability: PD-10 fractionation of kidney homogenate radioactivity; conditions: for radioactivity in high / low molecular weight fraction, kidney homogenate: PD-10 column; for release of serine in the kidney: after intravenous administration (3 hr)
Protocol: The kidney after blood removal was immediately ice-cooled, purified water (4 mL) was added and homogenized. A saturated potassium chloride solution (1 mL) was added to the prepared kidney homogenate, and the mixture was allowed to stand at 4° C. overnight and then centrifuged. The centrifuged supernatant (1 mL) was developed on a PD-10 column with 0.1 M acetate buffer (pH 6.0), and the radioactivity of the fraction was measured.

[3] = 3 hr after intravenous administration, FIG. 2
[4] = 3 hr after intravenous administration

| Substance | fluorescence in kidney section ([1]; FIG. 3(A)) | distribution in kidney (enlarged image of renal cortex) ([1]; FIG. 3(B)) | radioactivity in high / low molecular weight fraction, kidney homogenate [2, 4] | release of serine in the kidney [2] | organ distribution (SPECT/CT images) ([3]; 15.6 MBq/mouse) | accumulation site within the kidney (SPECT/CT images) [3] | decomposition in the kidney [2, 4] |
| --- | --- | --- | --- | --- | --- | --- | --- |
| FITC-labeled serine-modified poly-L-lysine [FITC-labeled compound (Ia)] | remarkably high in the renal cortex of renal medulla | Strong fluorescence derived from FITC-labeled compound (Ia) was observed in the proximal tubules |  |  |  |  |  |
| ^111In-labeled serine-modified PAMAM(G3) |  |  | mainly on the high molecular weight fraction side, relatively low molecular weight fraction side | released almost no serine in the kidney |  |  |  |
| ^111In-labeled serine-modified poly-L-lysine [^111In-labeled compound (Ia)] |  |  | mainly on the low molecular weight fraction side | rapidly released serine in the kidney | specifically accumulated in the kidney | mainly accumulated in the cortex part where proximal tubules and the like are present |  |
| ^111In-labeled PAMAM(G3) |  |  | mainly on the high molecular weight fraction side |  |  |  | hardly decomposed in the kidney |
